Experimental data from patent US7776917B2, “Non-standard amino acid conjugates of amphetamine and processes for making and using the same” (priority 2006, dated 2010).
Like-named read-outs stand apart in the source and are kept apart here.

Key:
[1] = oral, n=5; released d-amphetamine in plasma
[2] = Oral PK study Lys-Amp, hArg-Amp, Orn-Amp, Cit-Amp (Example 9); conditions: in words
[3] = Average results of 4 oral PK studies, Lys-Amp vs hArg-Amp (Example 7); conditions: average of 4 oral studies, n=20 per compound; released d-amphetamine
[4] = Oral gavage PK study, plasma d-amphetamine by ELISA, Lys-Amp vs hArg-Amp (Example 7); conditions: […] d-amphetamine freebase equivalent, n=5, released d-amphetamine in plasma

## C[C@@H](Cc1ccccc1)NC(=O)[C@@H](N)CCCCN=C(N)N.Cl.Cl [hArg-Amp, l-homoarginine-d-amphetamine Dihydrochloride]
[1]
  Tmax: 4 h
[2]
  Tmax compared to Lys-Amp: significantly shifted the Tmax
[3]
  Tmax: 4 h
[4]
  Tmax: 4 h
